Experiment [1] concerns HIV-1 reverse transcriptase (Human immunodeficiency virus 1). Put plainly: Percent inhibition against RNA-dependent DNA polymerase (RDDP) of HIV-1 RT Nucleic Acid polymerase at dose 200 ug/mL.
The test system is the same in experiment [2]. Put plainly: Percent inhibition against DNA -dependent DNA polymerase (DDDP) of HIV-1 RT Nucleic Acid polymerase at dose 200 ug/mL.

One may read the inhibition as the drop in the measured response relative to a control, in per cent. Turning to `CCCc1cc(=O)oc2c3c(c4c(c12)OC(C)(C)C=C4)O[C@H](C)[C@@H](C)[C@@H]3O` [CALANOLIDE A], the inhibition in experiment [1] was 97.4%; in experiment [2], 83.9%.
On the same counts, the results for `CCCc1cc(=O)oc2c3c(c4c(c12)OC(C)(C)C=C4)O[C@@H](C)[C@H](C)[C@@H]3O` [COSTATOLIDE] are 68.1% and 52.7%.

The record behind these values is ChEMBL document CHEMBL1129527, “Synthesis, chromatographic resolution, and anti-human immunodeficiency virus activity of (+/-)-calanolide A and its enantiomers” (J Med Chem, 1996).
